Reference: US20100129370A1, “Trefoil Factors and Methods of Treating Proliferation Disorders Using Same” (priority 2004, published 2010)

System: CEACAM6 gene
Test: CEACAM6 luciferase reporter assay in MCF-7 cells
Format: cell-based, human
Conditions: MCF-7 co-transfected, expression plasmid alone
Excerpt: c-Myc episode tagged human TFF3 expression vector pIRESneo3-TFF3-Myc was constructed as follows: the human TFF3 cDNA was amplified by PCR using the primer set, 5′-ATGGCTGCCAGAGCGCTCTGC-3′ (sense) (SEQ ID NO:39) and 5′-AAGGTGCATTCTGCTTCCTGCAG-3′ (antisense) (SEQ ID NO:40) and cloned into pIRESneo3 vector (Invitrogen). A sequence coding for 2 copies of c-Myc tag EQKLISEEDL (SEQ ID NO:41) was inserted in frame with the last amino acid of TFF3. The C57F mutant expression vector of TFF3, pIRESneo3-TFF3-C57F-Myc, was similarly made by using the same sense primer and an antisense primer of 5′-AAGGTGAATTCTGCTTCCTGCAGGG-3′ (SEQ ID NO:42).
The human serum albumin cDNA was also similarly cloned into pIRESneo3 vector with 2 copies of the c-Myc-tag at its C-terminal using primers: 5′-ATGAAGTGGGTAACCTTTATTTCC-3′ (sense) (SEQ ID NO:43) and 5′-AAGCCTAAGGCAGCTTGACTTG-3′ (antisense) (SEQ ID NO:44). […]
MCF-7 cells were co-transfected with CEACAM6 luciferase report plasmid as well as expression plasmids of TFF3, c-Myc-Tagged (TFF3-tag), N-terminal deleted TFF3 (TFF3-Delta-1 and -2), TFF3-46R-47R and TFF3-C57F mutant, and TFF3-C57F-hSA (human serum albumin) fusion protein by Saint Mix transfection reagent as well as the empty vector as control. Luciferase activity was measured using a kit (Promega). […]

hSA: human serum albumin expressed from pIRESneo3 vector with c-Myc tags
effect on CEACAM6 expression: little effect
